According to PubChem BioAssay AID1304 (The Scripps Research Institute Molecular Screening Center, 2008):
The entries are a selection whose mix differs from that of the whole data set. Activity calls are given as the source filed them. No stated cut-off is given here; in the data, active means activation above about 33% (passing the limit was not always enough); inactive means the rest.

Chains of the proteins cited; added tags and fusions are not shown.
UniProt P25929, whole entry, looked up: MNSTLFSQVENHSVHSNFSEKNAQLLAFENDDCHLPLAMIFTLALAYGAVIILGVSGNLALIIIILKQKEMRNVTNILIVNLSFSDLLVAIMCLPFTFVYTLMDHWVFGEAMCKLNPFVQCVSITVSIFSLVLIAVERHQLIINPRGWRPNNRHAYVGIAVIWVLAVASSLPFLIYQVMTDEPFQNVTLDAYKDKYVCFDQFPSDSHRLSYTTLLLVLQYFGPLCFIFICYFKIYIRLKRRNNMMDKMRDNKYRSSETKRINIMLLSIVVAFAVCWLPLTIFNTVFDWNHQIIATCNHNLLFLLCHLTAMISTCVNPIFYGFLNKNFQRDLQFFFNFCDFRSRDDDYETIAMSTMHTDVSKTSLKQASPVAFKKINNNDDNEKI

Target: Neuropeptide Y receptor type 1 (Homo sapiens) (UniProt P25929)
Assay: activation enhancers of human NPY-Y1 – cell-based, primary screen (AID 1304);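 further: cells stimulated with NPY at EC10 then isoproterenol at EC100; 0% = low agonist plus stimulus and 100% = saturating agonist plus stimulus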
Settings: NPY-Y1 expressing cells, potentiator/agonist activation; at 3.6 µM; stronger effect = higher value

| SMILES | activation |
| --- | --- |
| O=[As](O)(c1ccccc1Br)c1ccccc1Br | inactive: 9.23% |
| CC(C)/C=N\N=C(\N)N[N+](=O)[O-] | inactive: 2.78% |
| CN(C(=O)Cc1ccc(Cl)c(Cl)c1)[C@@H]1CCCC[C@H]1N1CCCC1 | inactive: 14.3% |
| Cc1cccc(OCC(=O)OC2CN3CCC2CC3)c1 (stereo unspecified) | inactive: -0.6% |
| O=[As](O)(c1cccc(O)c1)c1cccc(O)c1 | inactive: 10% |
| O=[As](O)(O)c1cccnc1 | inactive: -6.41% |
| COc1cc(C(=O)NCC2(N3CCOCC3)CCCCC2)cc(Cl)c1OC(C)C | inactive: 7.29% |
| O=C(OC1CN2CCC1CC2)c1ccc(Cl)cc1 (stereo unspecified) | inactive: -1.37% |
| CCOP(=O)(Nc1cccc2ccccc12)OCC | inactive: -13% |
| COc1cc(C2NCCC3(OCCO3)C2(C)C)cc(OC)c1OC (stereo unspecified) | inactive: -17% |
| CCCOP(=S)(Nc1nc(N)cc(=O)[nH]1)OCCC | inactive: 14.6% |
| Nc1cccc2c([As](=O)(O)O)cccc12 | inactive: 1.79% |
| Cc1ccc(NCCc2c([N+](=O)[O-])cc([N+](=O)[O-])cc2[N+](=O)[O-])cc1 | inactive: 21.2% |
| Nc1ccccc1[As](=O)(O)c1ccccc1 | inactive: 3.29% |
| O=C(O)COc1ccc([As](=O)(O)O)cc1[N+](=O)[O-] | inactive: 7.28% |
| CS(=O)(=O)c1cc([N+](=O)[O-])c2no[n+]([O-])c2c1 | inactive: -0.07% |
| O=P(Nc1nccs1)(Oc1ccccc1)Oc1ccccc1 | inactive: 14.7% |
| O=P(Nc1nccs1)(c1ccccc1)c1nc2ccccc2s1 (stereo unspecified) | inactive: -2.36% |
| CCOP1(=S)c2c(C)nn(CCC#N)c2N=C(c2ccccc2F)N1C (stereo unspecified) | inactive: 3.96% |
| O=[N+]([O-])c1ccc2c(c1)nnn2O | inactive: -10.6% |
| CCOP1(=S)c2c(C)nn(CCC#N)c2N=C(c2ccc(F)cc2)N1C (stereo unspecified) | inactive: -4.79% |
